SMILES strings stand for the structures.

In data set [1] the test system is NK-cell cytotoxicity against K562 target cells. The class given is cell-based, human. The protocol: The ability of specific albumin fragments to impact NK-cell cytotoxicity was also evaluated. In these experiments, synthetic peptides corresponding to albumin fragments (P3028, P3026, and P3027) (SEQ ID NOs: 185, 183, and 184, respectively) were prepared and the amount of lysis of K562 target cells was assessed (see Example 4).

The subject of the next data set is K562 target cells. As to the kind of experiment: NK-cell cytotoxicity (NKTEST). It counts as cell-based, human. Particulars: 10 ug/ml, effector:target 40:1, four donors. Here is the method:
The NK-cell cytotoxic activity of blood mononuclear cells from four healthy donors was tested. Mononuclear cells were separated by standard Ficoll-paque Plus (Pharmacia AB, Sweden) density gradient centrifugation from heparinized blood obtained from healthy donors. NK cell cytotoxic activity of the mononuclear cells was then tested using a commercial kit (NKTEST, Orpegen Pharma GmblI, Heidelberg, Germany) following the manufacturers protocol. Briefly, the kit contains cryopreserved, NK-sensitive target cells (K562) labeled with a lipophilic green fluorescent membrane dye, which enables discrimination of effector and target cells. After incubation with effector cells, killed target cells are identified by a DNA-stain, which penetrates and specifically stain the nuclei of dead target cells. This way the percentage of killed targets can be determined by flow cytometry. The mononuclear cells were preincubated for 30 min at 37° C. with the indicated peptides (peptides have been described previously) at 10 ug/ml. Target cells were then added, giving an effector:target ratio of 40:1, and the cell mixture incubated at 37° C. for 3-4 hours. Samples were analysed on a FACSCalibur (BD Biosciences, San Jose, Calif.).

On to `CC[C@H](C)[C@H](NC(=O)[C@H](CC(C)C)NC(=O)[C@H](CC(N)=O)NC(=O)[C@H](CCC(N)=O)NC(=O)[C@@H]1CCCN1C(=O)[C@H](CCC(=O)O)NC(=O)[C@H](CCC(=O)O)NC(=O)[C@@H](NC(=O)[C@H](CC(C)C)NC(=O)[C@@H]1CCCN1C(=O)[C@H](CCCCN)NC(=O)[C@H](Cc1ccccc1)NC(=O)[C@H](CCC(=O)O)NC(=O)[C@H](CC(=O)O)NC(=O)[C@H](Cc1ccccc1)NC(=O)[C@@H](N)C(C)C)C(C)C)C(=O)N[C@@H](CCCCN)C(=O)O` [P3028], for which the “effect on NK-cell cytotoxicity” value in data set [1] is on record as “caused a reduction in NK-cell cytotoxicity”. For the same molecule, the “effect on NK-cell cytotoxicity (percent specific lysis)” value in the data set on K562 target cells is “reduced the percent specific lysis of K562 target cells by all four donors”.

The values are drawn from patent publication US9657059B2, “Immune system modulators” (Canimguide Therapeutics AB, priority 2013, dated 2017).
